Compound activity from PubChem BioAssay.
Most compounds without a hit are left out; they make up all but 0.94% or so of the library.
PKA-R1A act = activates the PKA-R1A holoenzyme complex; P00514+P68181; PKA-R1A dissociation, Cy5-IP20 fluorescence polarization; scaled: DMSO 0%, 113 µM cGMP 100%; activation, % at 11.4 µM; 340,000 tested, 0.083% active; AID 504707;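 active = percent activation above the mean of all tested compounds plus 3 SD, cut at about 19% in these data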;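 note: higher means more PKAc released from R1A so a rise in polarization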
UUG fidelity = modulators of yeast start codon fidelity, primary screen, whole organism, S. cerevisiae, single point, plate reader; activity score, % at 18.7 µM; actives 0.13% (n = 350,000); S. cerevisiae UUG-firefly luciferase reporter, luminescence/redox ratio;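 active = replicate mean at a twofold rise or more, about +100% in these data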;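 also: firefly luciferase made from a UUG start codon reports start codon fidelity; reporter light over untreated wells divided by growth signal over untreated wells; some hits fall short of that in this replicate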
PKA-R2B act = PKA-R2B complex activation. PKA-R2B holoenzyme dissociation, Cy5-IP20 fluorescence polarization; R2B truncated from residue 108, S112A mutant; 0% DMSO only, 100% 113 µM cGMP. activation, % at 11.4 µM. 340,000 tested, 0.079% active. AID 504700;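 active = activation above a cutoff set at the mean over all compounds plus 3 SD, cut at about 18% in these data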;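 note: higher means more holoenzyme dissociation and a rise in polarization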
p-CIP stab down = p/CIP protein destabilization | Q05BA5 | F442A p/CIP-EGFP cells, EGFP fluorescence, 16 h | decrease of EGFP signal, % at 10 µM | 290,000 tested, 0.01% active | AID 1984;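 active = EGFP signal decrease of at least 30% at 10 µM or well 3 SD below plate mean, unless failing retest; inactive = the rest, including hits failing retest or dose response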
Granule exo inh = lytic granule exocytosis inhibition; inhibition, % at 10 µM; TALL-104 LAMP-1 surface exposure, flow cytometry; cells stimulated with thapsigargin and PMA; 360,000 tested, 0.66% active;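 active = inhibition above about 55%, limit read from the data; inconclusive = no clear call, values can overlap the other calls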
ABCB6 inh MLPCN = inhibitors of human ABC transporter ABCB6. 360,000 tested, 0.19% active. Q9NP58. fluorescence ratio to DMSO, % at 10 µM. K562-ABCB6 porphyrin accumulation, flow cytometry, 1 h; stronger effect = lower value;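 active = fluorescence ratio to DMSO below 75%, the collection mean minus 3 SD; inconclusive = too few cells collected in the well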;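 note: signal is porphyrin accumulated inside mitochondria; 100% equals median channel fluorescence of DMSO control wells; lower ratio means ABCB6 inhibition with less porphyrin fluorescence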
R1A FP artifact = counter-screen for PKA-R1A activators: fluorescence polarization artifacts; shares compounds with PKA-R1A act; Cy5-IP20 peptide alone, fluorescence polarization artifact counterscreen; activation, % at 11.4 µM; 280 tested, 7% active; AID 504799;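 active = mean activation over triplicate runs exceeds the adjusted cutoff derived for the parent primary screen, cut at about 19% in these data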;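 note: no PKA protein present so any polarization rise reflects compound interference; 0% = tracer peptide mix alone and 100% = mix with added PKA catalytic subunit; higher means stronger polarization artifact and likely false positive in parent screen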
PKA-R1A act conf = PKA-R1A complex activation, confirmation. Cy5-IP20 fluorescence polarization, PKA-R1A holoenzyme dissociation. shares compounds with PKA-R1A act. activation, % at 11.4 µM. 280 tested, 9% active;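 active = mean activation over replicate wells exceeds the adjusted hit threshold taken from the earlier primary screen, cut at about 20% in these data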;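 note: 0% = holoenzyme mix with DMSO only and 100% = cGMP-activated control wells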
Active calls of the source: *; ? = inconclusive; · = not tested or not shown.

cpd | smiles | PKA-R1A act | UUG fidelity | PKA-R2B act | p-CIP stab down | Granule exo inh | ABCB6 inh MLPCN | R1A FP artifact | PKA-R1A act conf
1 | C[C@H](CO)N1C[C@H](C)[C@H](CN(C)CC2CC2)Oc2c(cccc2N(C)C)C1=O | · | -11.2 | · | · | · | · | · | ·
2 | COc1ccccc1CNC(=O)C(=O)c1cn(CC(=O)N2CCCC2)c2ccccc12 | 1.8 | -1.8 | -6.3 | 5.3 | ? | 98.0 | · | ·
3 | COc1ccccc1CCNC(=O)C(=O)c1cn(CC(=O)N2CCOCC2)c2ccccc12 | 18.8* | 4.1 | 1.8 | -13.3 | -2.9 | 100.0 | -2.1 | -0.6
4 | CO[C@H]1CN(C)C(=O)c2cc(NC(=O)NC(C)C)ccc2OC[C@@H](C)N(Cc2ccccn2)C[C@H]1C | · | -14.2 | · | · | · | · | · | ·
5 | C[C@@H]1CN([C@@H](C)CO)C(=O)c2cc(NS(=O)(=O)c3ccc(Cl)cc3)ccc2O[C@@H](C)CCCCO[C@@H]1CN(C)C(=O)c1ccccc1 | · | 5.4 | · | · | · | · | · | ·
6 | O=C(O)c1nn(CC(=O)N2CCC(Cc3ccccc3)CC2)c(=O)c2ccccc12 | 20.7* | · | -5.0 | -1.2 | 9.5 | 96.0 | 1.5 | 2.8
7 | COc1ccc(/C=C2/S/C(=N/S(=O)(=O)Cc3ccccc3)NC2=O)cc1OC | 23.2* | · | 5.5 | 0.9 | -1.1 | 100.0 | 1.8 | -0.8
8 | Cc1nc(-c2ccccc2)sc1C1(C)CC(c2ccc(OC(F)(F)F)cc2)=NO1 (stereo not drawn) | 18.8* | -13.5 | 3.9 | -3.2 | -5.0 | 99.0 | 0.4 | -2.5

Following part.
cpd | smiles | PKA-R1A act | UUG fidelity | PKA-R2B act | p-CIP stab down | Granule exo inh | ABCB6 inh MLPCN | R1A FP artifact | PKA-R1A act conf
9 | Cc1nc(-c2ccc(Cl)cc2)sc1C1(C)CC(c2ccc(OC(F)(F)F)cc2)=NO1 (stereo not drawn) | -4.2 | -5.3 | 2.9 | -5.6 | 1.0 | 101.0 | · | ·
10 | O=C(C[C@H]1C[C@@H]2c3cc(NC(=O)Nc4ccccc4)ccc3O[C@@H]2[C@H](CO)O1)NCC1CC1 | · | -8.8 | · | · | · | · | · | ·
11 | Cc1ccnc(SCc2cc(=O)c(OC(=O)c3cc([N+](=O)[O-])ccc3Cl)co2)n1 | 19.1* | · | 1.7 | -8.3 | -0.3 | 95.0 | 2.5 | 2.6
12 | Cc1ccc(-c2cnc3c(c2)C(=O)N([C@@H](C)CO)C[C@H](C)[C@H](CN(C)CC2CCOCC2)O3)cc1 | · | -10.1 | · | · | · | · | · | ·
13 | CCOC(=O)C1CCN(CC(C)(C)NS(=O)(=O)c2ccccc2)CC1 | 20.7* | 14.2 | 6.7 | -9.7 | -9.7 | 102.0 | -0.4 | -3.5
14 | CC(C)C#Cc1cnc2c(c1)C(=O)N([C@H](C)CO)C[C@H](C)[C@H](CN(C)C(=O)Nc1ccc(F)cc1)O2 | · | 15.2 | · | · | · | · | · | ·
15 | COc1cccc(C(=O)NC(=S)Nc2ccccc2N2CCCC2)c1 | 0.3 | · | 1.2 | 21.7 | -1.2 | 103.0 | · | ·
16 | CC(C)Oc1cccc(C(=O)NC(=S)Nc2ccccc2N2CCOCC2)c1 | 19.1* | -9.7 | -3.0 | -7.2 | 0.8 | 91.0 | -3.9 | -3.4

Following part:
cpd | smiles | PKA-R1A act | UUG fidelity | PKA-R2B act | p-CIP stab down | Granule exo inh | ABCB6 inh MLPCN | R1A FP artifact | PKA-R1A act conf
17 | O=C(NCc1ccco1)C1CC2CCC1C2 (stereo not drawn) | 19.7* | -11.0 | 2.3 | 0.5 | -3.3 | 100.0 | 0.5 | -1.3
18 | O=C(O)C1C2CCC(C2)C1C(=O)NCc1ccco1 (stereo not drawn) | 2.1 | 2.1 | 10.1 | -10.3 | -0.8 | 99.0 | · | ·
19 | CCOC(=O)c1nnn(-c2ccc([N+](=O)[O-])cc2)c1C | 9.3 | · | 1.4 | -7.0 | 24.8 | 101.0 | · | ·
20 | CCOC(=O)c1nnn(-c2ccccc2C#N)c1C | 20.0* | -9.2 | 0.6 | -3.9 | -0.7 | 97.0 | -0.7 | -0.7
21 | COc1ccc(S(=O)(=O)N(C)C[C@H]2Oc3ccc(NC(=O)CCC(F)(F)F)cc3CC(=O)N([C@@H](C)CO)C[C@@H]2C)cc1 | · | 20.0 | · | · | · | · | · | ·
22 | CC(=O)Nc1ccc(S(=O)(=O)N2CCc3cc4c(cc3C2C)OCCCO4)cc1 (stereo not drawn) | 21.3* | 0.9 | 12.9 | 13.1 | ? | 102.0 | 1.8 | -0.4
23 | COc1ccc(N(CC(=O)NCCSc2ccccn2)S(=O)(=O)c2ccc(C)cc2)cc1OC | 14.7 | -30.5 | 4.3 | -9.0 | -3.3 | 88.0 | · | ·
24 | COc1ccc(N(CC(=O)NCCSc2ccccn2)S(=O)(=O)c2ccccc2)cc1OC | 20.7* | 7.2 | 4.8 | -2.4 | 11.3 | 95.0 | 1.2 | 0.8

(25) O=C(NCc1ccc2c(c1)OCO2)c1ccc2c(c1)S(=O)(=O)c1ccccc1C2=O
(26) O=C(Nc1ccc2c(c1)OCO2)c1ccc2c(c1)S(=O)(=O)c1ccccc1C2=O
(27) COc1ccc(C(=O)C[n+]2cccc3cc(C)ccc32)cc1
(28) CCOC(=O)C1=NNC(C(=O)c2ccc(OC)cc2)C1c1ccccc1 (stereo not drawn)
(29) CCOC(=O)C1=NNC(C(=O)c2ccccc2)C1c1ccc(C)cc1 (stereo not drawn)
(30) CN(C)CC(=O)N[C@H]1CC[C@H](CC(=O)NCc2ccccc2F)O[C@H]1CO
(31) COc1cccc(NC(=O)CN(C)C(=O)CCNS(=O)(=O)c2ccc(C)cc2)c1
(32) C/C(=N\NC(=O)c1csc(C)c1C)c1ccc(Cl)s1

| assay / compound | 25 | 26 | 27 | 28 | 29 | 30 | 31 | 32 |
| --- | --- | --- | --- | --- | --- | --- | --- | --- |
| PKA-R1A act | 21.8* | 2.0 | 18.7* | 19.9* | 2.0 | · | 19.3* | 10.8 |
| UUG fidelity | 6.5 | -10.5 | -6.4 | -13.2 | · | 2.6 | -8.4 | -14.1 |
| PKA-R2B act | -6.8 | -0.4 | 1.1 | -6.5 | -3.7 | · | 10.8 | 0.6 |
| p-CIP stab down | · | · | -4.6 | 13.2 | -9.2 | · | · | 8.0 |
| Granule exo inh | 5.5 | -1.5 | 0.8 | 0.9 | -2.3 | · | -1.7 | 12.4 |
| ABCB6 inh MLPCN | 103.0 | 96.0 | 427.0 | 102.0 | 95.0 | · | 97.0 | 88.0 |
| R1A FP artifact | -1.9 | · | 8.8 | 5.1 | · | · | 2.9 | · |
| PKA-R1A act conf | -1.8 | · | 5.2 | 4.5 | · | · | 1.8 | · |

Some of these compounds in order of length of the SMILES, low to high:
(32) C/C(=N\NC(=O)c1csc(C)c1C)c1ccc(Cl)s1
(29) CCOC(=O)C1=NNC(C(=O)c2ccccc2)C1c1ccc(C)cc1 (stereo not drawn)
(31) COc1cccc(NC(=O)CN(C)C(=O)CCNS(=O)(=O)c2ccc(C)cc2)c1

| assay / compound | 32 | 29 | 31 |
| --- | --- | --- | --- |
| PKA-R1A act | 10.8 | 2.0 | 19.3* |
| UUG fidelity | -14.1 | · | -8.4 |
| PKA-R2B act | 0.6 | -3.7 | 10.8 |
| p-CIP stab down | 8.0 | -9.2 | · |
| Granule exo inh | 12.4 | -2.3 | -1.7 |
| ABCB6 inh MLPCN | 88.0 | 95.0 | 97.0 |
| R1A FP artifact | · | · | 2.9 |
| PKA-R1A act conf | · | · | 1.8 |

(list continues)
(33) C/C(=N\NC(=O)c1ccoc1C)c1ccc(Cl)s1
(34) CCSc1nc2c(c(=O)[nH]1)C(c1cccnc1)C(C(=O)OC)=C(C)N2 (stereo not drawn)
(35) C[C@@H]1CN([C@@H](C)CO)C(=O)c2ccccc2-c2ccccc2CO[C@H]1CN(C)C(=O)c1ccccc1
(36) CN(C)CCNC(=O)c1c(CSc2ccc(Cl)cc2)noc1C(=O)NCc1ccccc1
(37) O=C(NCc1ccccc1)c1onc(CSc2ccc(Cl)cc2)c1C(=O)NCc1ccccc1
(38) CNC(=O)COc1ncnc2scc(-c3ccc(F)cc3)c12
(39) Cc1ccc(S(=O)(=O)n2cnc(C)c2)cc1
(40) O=C(NNC(=S)Nc1cccc(Cl)c1)c1ccccc1

| assay / compound | 33 | 34 | 35 | 36 | 37 | 38 | 39 | 40 |
| --- | --- | --- | --- | --- | --- | --- | --- | --- |
| PKA-R1A act | 19.6* | 20.2* | · | 20.2* | 1.8 | 19.2* | 19.9* | 19.6* |
| UUG fidelity | -5.1 | -5.5 | 6.1 | -12.6 | -8.6 | · | -5.1 | -26.6 |
| PKA-R2B act | -3.9 | 3.2 | · | 1.7 | 2.1 | 0.5 | 3.8 | 9.6 |
| p-CIP stab down | -11.9 | 2.8 | · | · | 1.8 | -5.4 | 4.8 | 4.3 |
| Granule exo inh | -0.8 | -1.2 | · | -3.5 | -1.8 | 5.8 | 6.1 | 0.9 |
| ABCB6 inh MLPCN | 94.0 | 100.0 | · | 92.0 | 99.0 | 96.0 | 95.0 | 91.0 |
| R1A FP artifact | 2.1 | 1.8 | · | 3.2 | · | 2.9 | 3.0 | 5.7 |
| PKA-R1A act conf | 5.4 | -1.7 | · | 5.0 | · | 5.2 | 2.8 | 8.7 |
